## Cyclic peptide permeability, from CycPeptMPDB

Source: CycPeptMPDB (Li et al. 2023), which took these values from Kelly et al. 2021, doi:10.1021/jacs.0c06115.

PAMPA is the parallel artificial membrane permeability assay, which has no cells and reads passive diffusion.
Permeability is in 10^-6 cm/s, converted from the database's log10 values; higher is more permeable.

* CC(=O)N1CCC[C@H]1C(=O)N[C@@H]1C(=O)N[C@H](CC(C)C)C(=O)N(C)[C@H](CC(C)C)C(=O)N[C@H](CC(C)C)C(=O)N(C)[C@H](CC(C)C)C(=O)N[C@H](C)C(=O)N[C@@H](CC(C)C)C(=O)N2CCC[C@@H]2C(=O)O[C@@H]1C: PAMPA 2.1 × 10^-6 cm/s
* CC(=O)N1CCC[C@H]1C(=O)N(C)[C@H](CC(C)C)C(=O)N[C@@H]1C(=O)N[C@@H](CC(C)C)C(=O)N(C)[C@@H](CC(C)C)C(=O)N(C)[C@H](CC(C)C)C(=O)N(C)[C@@H](C)C(=O)N[C@@H](CC(C)C)C(=O)N2CCC[C@@H]2C(=O)O[C@@H]1C: PAMPA 4.8 × 10^-6 cm/s
* CC(=O)N1CCC[C@H]1C(=O)N(C)[C@H](CC(C)C)C(=O)N[C@@H]1C(=O)N[C@@H](CC(C)C)C(=O)N[C@@H](CC(C)C)C(=O)N[C@@H](CC(C)C)C(=O)N(C)[C@@H](C)C(=O)N[C@@H](CC(C)C)C(=O)N2CCC[C@@H]2C(=O)O[C@@H]1C: PAMPA 0.49 × 10^-6 cm/s
* CC(=O)N1CCC[C@H]1C(=O)N[C@@H]1C(=O)N(C)[C@H](CC(C)C)C(=O)N[C@@H](CC(C)C)C(=O)N[C@@H](CC(C)C)C(=O)N[C@@H](CC(C)C)C(=O)N[C@H](C)C(=O)N[C@@H](CC(C)C)C(=O)N2CCC[C@@H]2C(=O)O[C@@H]1C: PAMPA 0.048 × 10^-6 cm/s
* CC(=O)N1CCC[C@H]1C(=O)N(C)[C@H](CC(C)C)C(=O)N[C@@H]1C(=O)N[C@@H](CC(C)C)C(=O)N[C@@H](CC(C)C)C(=O)N(C)[C@@H](CC(C)C)C(=O)N(C)[C@@H](C)C(=O)N[C@H](CC(C)C)C(=O)N2CCC[C@@H]2C(=O)O[C@@H]1C: PAMPA 0.44 × 10^-6 cm/s
* CC(=O)N1CCC[C@@H]1C(=O)N(C)[C@@H](CC(C)C)C(=O)N[C@@H]1C(=O)N[C@@H](CC(C)C)C(=O)N[C@@H](CC(C)C)C(=O)N(C)[C@H](CC(C)C)C(=O)N[C@@H](C)C(=O)N[C@H](CC(C)C)C(=O)N2CCC[C@H]2C(=O)O[C@@H]1C: PAMPA 0.33 × 10^-6 cm/s
* CC(=O)N1CCC[C@@H]1C(=O)N(C)[C@H](CC(C)C)C(=O)N[C@@H]1C(=O)N[C@H](CC(C)C)C(=O)N(C)[C@H](CC(C)C)C(=O)N[C@H](CC(C)C)C(=O)N(C)[C@H](C)C(=O)N[C@H](CC(C)C)C(=O)N2CCC[C@H]2C(=O)O[C@@H]1C: PAMPA 3.2 × 10^-6 cm/s
* CC(=O)N1CCC[C@H]1C(=O)N(C)[C@@H](CC(C)C)C(=O)N[C@@H]1C(=O)N[C@H](CC(C)C)C(=O)N(C)[C@@H](CC(C)C)C(=O)N[C@@H](CC(C)C)C(=O)N(C)[C@H](C)C(=O)N[C@H](CC(C)C)C(=O)N2CCC[C@H]2C(=O)O[C@@H]1C: PAMPA 2.5 × 10^-6 cm/s
* CC(=O)N1CCC[C@H]1C(=O)N(C)[C@@H](CC(C)C)C(=O)N[C@@H]1C(=O)N(C)[C@H](CC(C)C)C(=O)N(C)[C@@H](CC(C)C)C(=O)N(C)[C@@H](CC(C)C)C(=O)N(C)[C@@H](C)C(=O)N[C@@H](CC(C)C)C(=O)N2CCC[C@H]2C(=O)O[C@@H]1C: PAMPA 5.1 × 10^-6 cm/s
* CC(=O)N1CCC[C@H]1C(=O)N(C)[C@@H](CC(C)C)C(=O)N[C@@H]1C(=O)N(C)[C@@H](CC(C)C)C(=O)N(C)[C@@H](CC(C)C)C(=O)N[C@@H](CC(C)C)C(=O)N[C@@H](C)C(=O)N[C@H](CC(C)C)C(=O)N2CCC[C@H]2C(=O)O[C@@H]1C: PAMPA 0.055 × 10^-6 cm/s
* CC(=O)N1CCC[C@H]1C(=O)N(C)[C@@H](CC(C)C)C(=O)N[C@@H]1C(=O)N[C@@H](CC(C)C)C(=O)N(C)[C@H](CC(C)C)C(=O)N(C)[C@@H](CC(C)C)C(=O)N(C)[C@@H](C)C(=O)N[C@H](CC(C)C)C(=O)N2CCC[C@H]2C(=O)O[C@@H]1C: PAMPA 2.6 × 10^-6 cm/s
* CC(=O)N1CCC[C@H]1C(=O)N(C)[C@H](CC(C)C)C(=O)N[C@@H]1C(=O)N(C)[C@@H](CC(C)C)C(=O)N(C)[C@@H](CC(C)C)C(=O)N(C)[C@H](CC(C)C)C(=O)N(C)[C@@H](C)C(=O)N[C@H](CC(C)C)C(=O)N2CCC[C@@H]2C(=O)O[C@@H]1C: PAMPA 4.7 × 10^-6 cm/s

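The data file gives no further conditions (lipid, pH, time, direction or concentration), and values from different papers need not be comparable. The list need not hold all peptides of the study. Peptides that the database sets to -10, its floor, are left out.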